Test system: iMSCs
Assay: iMSC expansion, seeded at 1000 cells/well, day 10 morphology and cell number
Type: cell-based
Conditions: Example 13, 4 mg/L dialyzed HSA, 25 μg/ml heparin sodium, FIG. 13
Method: Cryopreserved iMSCs (RC01005, Nuwacell Co., Ltd.) were seeded in 6-well plates at 1000 cells/well in M1 medium to thaw the cells. The above medium was replaced 24 h later with 2 ml/well of the following medium: M1, SFM-M, PPRF, or MEM-FBS. M1 medium contained IMDM (+NaHCO3)/F12 (50%/50%), 2% by volume of Ultroser G (a Serum Replacement (SR)), 1% by volume of Glutamax, 1-150 μg/ml (e.g., 120 μg/ml) of transferrin, 5 μg/ml of insulin, 1-150 μg/ml (e.g., 110 μg/ml) of Mg Ascorbate, 20 μM of Ethanolamine, and 10 μM of Putrescine 2HCl. […]
Cryopreserved iMSCs (RC01005, Nuwacell Co., Ltd.) were seeded in 6-well plates at 1000 cells/well in M1 medium to thaw the cells. […] On day 10 of culture, the cells were digested by solase (RP01021, Nuwacell Co., Ltd.) for 3 min and collected, and then centrifugated, and with the supernatant removed, resuspended in the corresponding medium, and the number of iMSC cells was counted by cell viability analyzer (Vi-CELLTMXR, BECKMAN COULTER) (FIG. 5). […]

In the case of “dialyzed HSA: human serum albumin dialyzed in DPBS at 4° C. overnight, 15 KD bag”, the “effect of addition to M3 on iMSC growth” value is reported as “could significantly lower the required HPLT concentration in promoting iMSC growth”.

From patent US12359173B2, “Serum-free and xeno-free culture medium for expanding mesenchymal stem cells” (NUWACELL BIOTECHNOLOGIES CO., LTD., priority 2023, dated 2025)
